## AlphaSeq binding of Ab-14 light chain variants to a spike HR2 peptide

The measurements come from Engelhart et al. 2022 (doi:10.1038/s41597-022-01779-4) through the FLAb antibody collection.

Antigen: PDVDLGDISGINAS, a 14-residue peptide of the SARS-CoV-2 spike HR2 region.

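The starting antibody came from a phage panning campaign against this peptide. AAYL50 was designed without a model: most single CDR substitutions and a random sample of double and triple ones. The assay is AlphaSeq: two haploid yeast populations carry antibody and antigen on their surface. After mating in shaken culture at 30 °C for 16 h, diploids were selected and their barcode pairs sequenced. Scores were corrected for input abundance and mapped to Kd with protein pairs of known affinity run in the same pool. The assay was run in three technical replicates.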

Each scFv is VH, three GGGGS repeats, VL, as in the parent Ab-14, and differs from it in the CDRs of the light chain only.
VH: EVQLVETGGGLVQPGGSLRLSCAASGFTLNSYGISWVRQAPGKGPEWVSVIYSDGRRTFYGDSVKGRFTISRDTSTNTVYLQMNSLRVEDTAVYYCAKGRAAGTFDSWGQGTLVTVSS
VL: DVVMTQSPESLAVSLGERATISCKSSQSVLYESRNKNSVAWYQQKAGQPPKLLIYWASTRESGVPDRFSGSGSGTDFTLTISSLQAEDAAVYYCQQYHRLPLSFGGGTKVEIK

Changes read parent residue, position, new residue, counted from the first residue of the VL shown.
Scale: log10 of Kd in nM, estimated from mating counts; low values are strong binders.
"n.d." marks a missing value. The strain was present, yet no cells mated with the target were sequenced in that replicate, which points to weak or no binding.
As a blank, each scFv also met three strains without target: over library AAYL50, 18% of these pairings were detected, typically at 4.19 and seldom below 2.99. The control count says in how many pairings with the empty strains this scFv gave a signal, with their mean in brackets.

| changes | log10 Kd (nM) by replicate | control signals |
|---|---|---|
| H98W L102Q | 0.78 1.04 0.95 | 1 of 9 (6.01) |
| L30H A40L H98G | n.d. n.d. n.d. | 1 of 9 (4.03) |
| S26K Q96Y P101H | n.d. n.d. 3.93 | 0 of 9 |
| A40S A57W H98T | n.d. n.d. n.d. | 0 of 9 |
| S26K W56P A57S | n.d. 4.29 n.d. | 2 of 9 (2.51) |
| E32H S33H S58M | n.d. 3.05 n.d. | 0 of 9 |
| L30R E32C L100V | n.d. 2.99 3.13 | 1 of 9 (3.43) |
| V29Q R34H H98K | 0.38 1.01 0.62 | 0 of 9 |
| R34K Y97G L100M | 4.71 5.48 n.d. | 5 of 9 (3.96) |
| S26N R34W Q95I | n.d. n.d. n.d. | 0 of 9 |
| Q27W K36N S103W | 3.04 2.60 n.d. | 4 of 9 (4.56) |
| Q95H R99A L102F | n.d. n.d. n.d. | 0 of 9 |
| K36V A40T Y97A | n.d. n.d. n.d. | 2 of 9 (5.36) |
| K36C V39S S103A | 2.02 2.14 2.08 | 2 of 9 (5.11) |
| R60L Q96F Y97I | n.d. n.d. 3.88 | 3 of 9 (3.87) |
| S38D A40L | n.d. n.d. n.d. | 2 of 9 (4.57) |
| V39F A57W S58K | n.d. 3.61 4.14 | 2 of 9 (5.03) |
| S28G V29F L102F | n.d. n.d. n.d. | 0 of 9 |
| S26K S28P R34E | 0.58 0.72 0.54 | 3 of 9 (4.74) |
| S33G N37G L102D | 0.71 0.99 0.76 | 1 of 9 (4.83) |
| S26R W56I S58W | 4.95 n.d. n.d. | 0 of 9 |
| Q27R S62C Y97H | 2.44 2.41 2.95 | 2 of 9 (3.33) |
| R60E Q96W | n.d. n.d. n.d. | 1 of 9 (3.54) |
| Q27V H98W L102Q | n.d. 3.86 4.37 | 3 of 9 (3.75) |
| Q27Y Y97L H98D | 3.18 3.39 3.34 | 7 of 9 (4.83) |
| L30N S33H W56N | 0.67 0.83 0.94 | 0 of 9 |
| R34V S62Y L102E | n.d. n.d. n.d. | 0 of 9 |
| V29N Y97I | n.d. n.d. n.d. | 0 of 9 |
| W56C R99P | 3.54 n.d. 2.71 | 0 of 9 |
| Q27N V29Y R60G | n.d. n.d. 4.18 | 1 of 9 (3.80) |
| S38M S58E Y97F | 5.18 2.91 n.d. | 0 of 9 |
| K36M Y97R H98D | 0.53 0.82 0.74 | 1 of 9 (3.52) |
| Y31A N35W Q96L | n.d. n.d. n.d. | 0 of 9 |
| S25A V29G P101M | 1.75 2.74 2.56 | 0 of 9 |
| L30H S62G L100M | 4.35 n.d. n.d. | 0 of 9 |
| W56V S62E Y97V | 3.50 n.d. 6.28 | 2 of 9 (4.80) |
| R34D R60Y L102N | n.d. n.d. n.d. | 0 of 9 |
| Y31L | 0.82 1.01 0.95 | 2 of 9 (5.08) |
| K24D S103V | 0.72 0.87 1.11 | 1 of 9 (4.39) |
| Q27E L30N Y97W | n.d. n.d. 3.44 | 3 of 9 (3.88) |
| R60P Y97E P101M | 4.63 n.d. 3.52 | 0 of 9 |
| R34H Y97L P101C | 0.83 1.21 1.03 | 2 of 9 (3.96) |
| S33D N35G Q95G | 2.12 2.34 2.37 | 1 of 9 (3.69) |
| S26L K36I P101T | 3.66 n.d. n.d. | 0 of 9 |
| S33D R34Q S38Y | 1.67 1.86 2.21 | 1 of 9 (3.78) |
| K36N S58T S62Q | 0.49 0.90 0.52 | 0 of 9 |
| S26Q Y31A A57M | 2.36 2.33 2.34 | 2 of 9 (4.32) |

Extract of 6 entries:

| changes | log10 Kd (nM) by replicate | control signals |
|---|---|---|
| S26Q Y31A A57M | 2.36 2.33 2.34 | 2 of 9 (4.32) |
| S26K W56P A57S | n.d. 4.29 n.d. | 2 of 9 (2.51) |
| A40S A57W H98T | n.d. n.d. n.d. | 0 of 9 |
| W56C R99P | 3.54 n.d. 2.71 | 0 of 9 |
| S33D N35G Q95G | 2.12 2.34 2.37 | 1 of 9 (3.69) |
| W56V S62E Y97V | 3.50 n.d. 6.28 | 2 of 9 (4.80) |

In this assay the parent's reference entry averaged 0.65; its copy inside this library read 1.68.